Among the data in patent publication US7566727B2, “2-(1-aza-bicyclo[2.2.2]oct-3-yl)-2,3-dihydro-isoindole-1-one/5,6-dihydro-furo[2,3-c] pyrrol-4-one derivative ligands for alpha 7 nicotinic acetylcholine receptor” (priority 2004, dated 2009) are Ki values, retold here.

Amino acid sequences for entries named in this document (tags omitted). Residues count along the entry.
UniProt Q05941, 23-502 limits assumed: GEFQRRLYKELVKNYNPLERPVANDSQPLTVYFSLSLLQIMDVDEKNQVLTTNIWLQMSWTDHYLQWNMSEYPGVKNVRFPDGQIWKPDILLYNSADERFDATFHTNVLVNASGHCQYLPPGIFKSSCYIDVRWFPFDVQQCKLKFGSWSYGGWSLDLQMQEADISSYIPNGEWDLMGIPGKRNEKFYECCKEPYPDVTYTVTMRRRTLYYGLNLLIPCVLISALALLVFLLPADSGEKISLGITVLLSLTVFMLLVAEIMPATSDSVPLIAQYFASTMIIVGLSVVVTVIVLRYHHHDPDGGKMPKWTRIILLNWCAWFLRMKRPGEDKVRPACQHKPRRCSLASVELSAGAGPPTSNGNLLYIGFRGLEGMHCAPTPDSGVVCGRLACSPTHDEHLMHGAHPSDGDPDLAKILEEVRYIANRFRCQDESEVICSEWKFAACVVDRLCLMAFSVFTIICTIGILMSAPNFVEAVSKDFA

This assay deals with α7 nAChR subtype (Rattus norvegicus, UniProt Q05941). Particulars: read-out: α7 Ki; [125I]α-BTX displacement, rat hippocampal membranes.

Consider `CCCC(=O)Nc1cccc(-c2ccc3c(c2)C(=O)N([C@H]2CN4CCC2CC4)C3)c1`, for which the Ki came out at 4.5 nM.
